Earlier results on one compound are cited in patent US20150057375A1, “USE OF IMPROVED N-ALKYL PYRROLIDONE SOLVENT” (TAMINCO, priority 2012, published 2015).

The conditions of this series: EU classification / screening test; cited from earlier work.

Take `CCN1CCCC1=O` [NEP, N-ethyl-2-pyrrolidone]: the Reprotoxicity entry is listed as “listed as reprotoxic”.
